In this assay the test system is Escherichia coli. The assay can be described thus: Ratio of MIC for wild type Escherichia coli JC7623 to MIC for acrAB-deficient Escherichia coli JZM120. The class given is functional.

Take `CCN1CCN(C(=O)N[C@@H](C(=O)N[C@@H]2C(=O)N3[C@@H]2SC(C)(C)[C@@H]3C(=O)O)c2ccccc2)C(=O)C1=O` [PIPERACILLIN]: the Ratio amounted to 16.
`CC(=O)OCC1=C(C(=O)O)N2C(=O)[C@@H](NC(=O)Cc3cccs3)[C@H]2SC1` [CEPHALOTHIN]: the Ratio was found to be 1.

These data come from ChEMBL document CHEMBL2021919, “Computational analysis of structure-based interactions and ligand properties can predict efflux effects on antibiotics” (2012).
